From patent US8664201B2 (priority 2008, dated 2014)

Legend:
[1] = test system: B16 Melanoma; assay: s.c. B16 melanoma; type: in vivo, mice
[2] = test system: Lewis Lung Carcinoma; assay: Lewis lung carcinoma, s.c. implant, IP treatment; type: in vivo, mice

Measured: Tumor-free survivors

NP(=O)(O)N(CCCl)CCCl
0/10: [1]; dosage 30 (mg mg^-1), Day 2 Q5 min × 7 | [1]; dosage 200 (mg mg^-1), Day 2 single dose | [2]; 30 mg/kg/dose IP, Day 2 Q5 min × 7 | [2]; 200 mg/kg/dose IP, Day 2 single dose
